Source: PubChem BioAssay AID720711 (National Center for Advancing Translational Sciences (NCATS), 2013)
The entries are a selection whose mix differs from that of the whole data set. Some of these compounds have results that are not shown, active ones among them. Calls of active or inactive are those of the source. Calls come from the whole dose curve; as a rule, active = well fitted activation curve with a large enough effect; inconclusive = small, poorly fitted or top-dose-only effect; inactive = no such curve, though single readings can be large or run the other way.

Protein sequences, listed by entry. Tags and fused reporters are not part of them.
UniProt Q8WZA2, whole entry: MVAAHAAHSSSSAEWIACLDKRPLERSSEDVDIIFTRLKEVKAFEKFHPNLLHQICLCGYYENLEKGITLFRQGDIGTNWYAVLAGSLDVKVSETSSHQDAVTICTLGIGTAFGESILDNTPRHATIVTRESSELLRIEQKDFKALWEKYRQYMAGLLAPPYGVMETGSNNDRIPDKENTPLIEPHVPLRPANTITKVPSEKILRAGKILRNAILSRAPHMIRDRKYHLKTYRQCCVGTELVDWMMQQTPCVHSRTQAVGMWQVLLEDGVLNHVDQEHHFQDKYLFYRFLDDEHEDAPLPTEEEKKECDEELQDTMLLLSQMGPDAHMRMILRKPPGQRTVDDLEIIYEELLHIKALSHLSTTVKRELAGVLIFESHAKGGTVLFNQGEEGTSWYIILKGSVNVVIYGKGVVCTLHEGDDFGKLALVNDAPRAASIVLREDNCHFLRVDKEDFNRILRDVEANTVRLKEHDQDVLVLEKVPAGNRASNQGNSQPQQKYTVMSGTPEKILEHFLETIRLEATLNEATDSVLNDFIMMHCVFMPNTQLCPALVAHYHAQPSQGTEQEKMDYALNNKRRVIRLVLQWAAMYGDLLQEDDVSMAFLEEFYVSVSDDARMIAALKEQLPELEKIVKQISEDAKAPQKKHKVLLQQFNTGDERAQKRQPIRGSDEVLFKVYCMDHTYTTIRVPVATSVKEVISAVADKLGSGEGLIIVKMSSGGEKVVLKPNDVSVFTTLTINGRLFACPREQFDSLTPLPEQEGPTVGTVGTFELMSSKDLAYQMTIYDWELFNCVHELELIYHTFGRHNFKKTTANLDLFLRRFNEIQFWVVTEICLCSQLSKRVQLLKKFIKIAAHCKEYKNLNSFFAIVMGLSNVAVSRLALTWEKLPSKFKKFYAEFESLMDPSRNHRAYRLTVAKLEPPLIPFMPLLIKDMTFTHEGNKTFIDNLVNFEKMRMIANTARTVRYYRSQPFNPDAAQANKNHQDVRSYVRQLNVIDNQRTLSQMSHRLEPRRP

molecular target: Rap guanine nucleotide exchange factor 4 (Homo sapiens) (UniProt Q8WZA2); experiment: qHTS for Agonist of cAMP-regulated guanine nucleotide exchange factor 4 (EPAC2): primary screen; conditions: biochemical qHTS, 100% = 6.5 mM cAMP response; at 154 µM (top of the series); note: nearly all actives have a fitted effect of over 50% in size
Source text: In multi-cellular eukaryotic organisms, the effects of cAMP are transduced by two ubiquitously-expressed intracellular cAMP receptors, the classic protein kinase A/cAMP-dependent protein kinase (PKA/cAPK) and the more recently discovered exchange protein directly activated by cAMP/cAMP-regulated guanine nucleotide exchange factor (EPAC/cAMP-GEF). Both PKA and EPAC are ubiquitously expressed in all tissues, and an increase in intracellular cAMP levels will lead to the activation of both PKA and EPAC. Therefore, careful dissections of the individual role and relative contribution of EPAC and PKA within the overall cAMP signaling in various model systems are critical for further elucidating the mechanism of cAMP signaling. To date no EPAC-specific antagonists and agonist, as well as isoform-specific agonists have been reported, and developing EPAC-specific pharmacological probes to determine the physiological functions that EPAC play in the overall cAMP-mediated signaling remains a major challenge within the research field. Furthermore, identified regulators of EPAC may lead to new mechanism-based therapeutic strategies specifically targeting the EPAC / cAMP-signaling components as EPAC has been implicated to play important roles in major human pathological conditions such as diabetes, heart disease, and cancer.
This qHTS will be used to screen the Molecular Libraries Small Molecule Repository (MLSMR) as a concentration-titration series using the NCGC unique quantitative screening (qHTS) platform to find activators for EPAC2. In addition, this assay will also be used as a counterscreen for the EPAC1 qHTS. This fluorescent based assay is developed and validated for EPAC2 that measures exchange using EPAC effector Rap1 complex with BODIPY-GDP, a GDP analog with a tethered fluorophores. Activators are identified by monitoring the change in fluorescence signal as the exchanged free BODIPY-GDP has a reduced fluorescence compared to Rap1-bound BODIPY-GDP. […] in signal (activation) is the desired outcome for the EPAC2 agonist while no activity in this assay is desired for the EPAC1 agonist counterscreen.
[1] de Rooij, J., Zwartkruis, F. J., Verheijen, M. H., Cool, R. H., Nijman, S. M., Wittinghofer, A., and Bos, J.L. (1998) Nature 396, 474-477
[2] Kawasaki, H., Springett, G. M., Mochizuki, N., Toki, S., Nakaya, M., Matsuda, M., Housman, D. E., and Graybiel, A. M. (1998) Science 282, 2275-2279
NIH Chemical Genomics Center [NCGC]
NIH Molecular Libraries Probe Centers Network [MLPCN]
Assay Submitter (PI): Xiaodong Cheng, The University of Texas, Medical Branch
Briefly, three uL of reagents (100 nM EPAC2, 250 nM RAP1B-BODIPY-GDP, 50 uM GDP) were dispensed into a 1536-well Greiner black solid-bottom medium binding assay plate. Controls and test compounds (23 nL) were transferred to the plate via a Kalypsys pin tool equipped with a 1536-pin array. The plates were centrifuged at 1,000 rpm for 15 seconds followed by 5 minute incubation at room temperature. The assay plates were read at 5 minute intervals for 30 minutes in the ViewLux plate reader using 480nm excitation and 540nm emission filters. The results were normalized to the agonist positive control of 6.5 mM cAMP.

| SMILES | activation |
| --- | --- |
| Cc1ccccc1C(=O)NCC1(N2CCCCC2)CCCCC1 | inactive: 9.7% |
| CN(C)c1ccc(C(=O)NCC2(N(C)C)CCCCC2)cc1 | inactive: -8.38% |
| CN(C)C1CCCC1OC(=O)C(O)(c1ccccc1)c1ccccc1 (stereo not given) | inactive: -7.22% |
| C=CCN1CCN(CCOC(=O)C(O)(c2ccccc2)c2ccccc2)CC1 | inactive: -7.94% |
| O=C(NCC1(N2CCCCC2)CCCCC1)c1cc(F)c(F)cc1Cl | inactive: 11.2% |
| COc1ccc(C(=O)NCC2(N(C)C)CCCCC2)cc1 | inactive: 5.75% |
| CCN1CCCC(OC(=O)C2(O)c3ccccc3C=Cc3ccccc32)C1 (stereo not given) | inactive: -6.36% |
| Cc1cc(C(=O)NCC2(N3CCCCC3)CCCCC2)ccc1[N+](=O)[O-] | inactive: 3.62% |
| O=C(NCC1(N2CCCCC2)CCCCC1)c1cccc(Br)c1 | inactive: 9.61% |
| O=C(NCC1(N2CCCCC2)CCCCC1)c1cc([N+](=O)[O-])ccc1Cl | inactive: -3.27% |
| CN1[C@@H]2CC[C@H]1CC(OC(=O)C(O)(c1ccccc1)c1ccccc1)C2 (stereo not given in full) | inactive: 3.09% |
| CCN(CC)CC(C)C(C)OC(=O)C(O)(c1ccccc1)c1ccccc1 (stereo not given) | inactive: -2.09% |
| COc1cc(SC)ccc1C(=O)NCC1(N(C)C)CCCCC1 | inactive: 5.02% |
| CC(C)N1C(=O)CC2(CCN(CCOC(=O)C(O)(c3ccccc3)c3ccccc3)CC2)C1=O | inactive: -8.83% |
| Cc1ccc(C(=O)NCC2(N3CCCCC3)CCCCC2)cc1 | inactive: 1.37% |
| C=C(C)C#CC(O)(C(=O)OC1CCN(C)CC1)c1ccccc1 (stereo not given) | inactive: 6.51% |
| COc1ccc(Br)c(C(=O)NCC2(N3CCCCC3)CCCCC2)c1 | inactive: 3.69% |
| CC(C)Oc1ccc(C(=O)NCC2(N(C)C)CCCCC2)cc1 | inactive: 7.83% |
| O=C(OCCN1CCCC1)C(O)(c1ccccc1)c1ccccc1 | inactive: 5.02% |
| CN(C)c1cccc(C(=O)NCC2(N(C)C)CCCCC2)c1 | inactive: 4.65% |
| CN(C)C1(CNC(=O)c2ccc(Br)cc2)CCCCC1 | inactive: 11.7% |
| COc1cc(C(=O)NCC2(N(C)C)CCCCC2)c([N+](=O)[O-])cc1OC | inactive: 6.68% |
| COc1cccc(C(=O)NCC2(N3CCCCC3)CCCCC2)c1 | inactive: 0.111% |
| COc1ccc(Cl)cc1C(=O)NCC1(N(C)C)CCCCC1 | inactive: 9.83% |
| O=C(NCC1(N2CCCCC2)CCCCC1)c1cccc(Cl)c1 | inactive: 12.2% |
